Data set [1] is described as follows: Chemical stability: hydrolysis in 200 mM phosphate buffer, 37° C., LC-MS. The conditions noted are these: per diastereoisomer, st = stable.
Data set [2] is described as follows: Enzymatic stability: hydrolysis in rat intestinal homogenate, pH 6.5, 37° C., LC-MS. The note with it: pH 6.5, T1/2 Int. Hom., per diastereoisomer, st = stable.

What is called half-life is the time in which the quantity being followed falls by half. A lower half-life goes with rapid decline.

In the case of `COC(=O)[C@H](Cc1ccc(O[P@@]2(=O)CO[C@@H](Cn3ccc(N)nc3=O)CO2)cc1)NC(=O)[C@@H](N)C(C)C` (single isomer, unassigned) [2f (S,R)], the half-life in data set [1] (pH 6.5, T1/2 Buffer pH 6.5, 200 mM phosphate buffer pH 6.5, 37° C.) is 5.77 h; in data set [1] (pH 7.4, T1/2 Buffer pH 7.4, 200 mM phosphate buffer pH 7.4, 37° C.), 1.1 h; in data set [2], less than 0.467 h.

Source of the values: patent US8940313B2, “Tyrosine-based prodrugs of antiviral agents” (priority 2010, dated 2015).
